# Measured values: PubChem BioAssay AID1496 (Sanford-Burnham Center for Chemical Genomics, 2009)
# Amino acid sequences for entries named in this document (tags omitted).
# UniProt Q01196, whole entry, looked up: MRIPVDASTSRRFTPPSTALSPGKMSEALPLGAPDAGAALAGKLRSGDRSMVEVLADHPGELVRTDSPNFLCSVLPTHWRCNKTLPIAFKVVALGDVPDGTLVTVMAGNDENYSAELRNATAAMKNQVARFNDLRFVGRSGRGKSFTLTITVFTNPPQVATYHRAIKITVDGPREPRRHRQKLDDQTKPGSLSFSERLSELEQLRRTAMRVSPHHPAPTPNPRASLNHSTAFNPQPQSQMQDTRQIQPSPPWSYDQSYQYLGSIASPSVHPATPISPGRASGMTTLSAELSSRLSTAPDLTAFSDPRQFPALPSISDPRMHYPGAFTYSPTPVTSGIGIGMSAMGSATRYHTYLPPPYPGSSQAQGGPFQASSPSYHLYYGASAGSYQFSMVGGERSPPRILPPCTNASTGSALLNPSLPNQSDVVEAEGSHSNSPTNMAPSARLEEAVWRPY
# UniProt Q13951, whole entry, looked up: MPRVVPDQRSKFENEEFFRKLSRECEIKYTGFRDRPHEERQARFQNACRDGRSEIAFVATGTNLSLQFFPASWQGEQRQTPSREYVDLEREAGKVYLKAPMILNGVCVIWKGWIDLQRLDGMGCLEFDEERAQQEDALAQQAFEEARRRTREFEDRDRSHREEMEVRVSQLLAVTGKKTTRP
# The list shows a part of the results, in another mix than the full data. Some structures show a salt or complex split into parts, the way the source records it. Calls of active or inactive are those of the source.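 Rule for the calls: active = inhibition over about 50% at 20 µM in the single-dose screen (limit read from the data); inactive = the rest.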
# Molecular target: Runt-related transcription factor 1 (Homo sapiens) + Core-binding factor subunit beta (Homo sapiens) (UniProt Q01196+Q13951)
# Test: inhibitors of RUNX1 Runt–CBFb binding, primary screen, biochemical, FRET, Cerulean-Runt, Venus-CBFb, uHTS (AID 1496);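 note: 0% = DMSO wells and 100% = excess unlabeled CBFb competitor control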
# Details: Cerulean-Runt/Venus-CBFb FRET ratio 530/480, 1 h; at 20 µM; active compounds read high
row,SMILES,inhibition
1,CP(=O)(Nc1cccc(Br)c1)Oc1ccccc1 (configuration not stated),inactive: -0.1%
2,Cc1cc(C)cc(OP(C)(=O)Nc2ccccn2)c1 (configuration not stated),inactive: -0.9%
3,Cc1ccc(C)c(NP(C)(=O)Oc2ccccc2)c1 (configuration not stated),inactive: -1.3%
4,COc1ccccc1OP(C)(=O)Nc1cccc(Br)c1 (configuration not stated),inactive: 0%
5,Cc1cc(C)cc(OP(C)(=O)Nc2ccc(C)cc2C)c1 (configuration not stated),inactive: 1.4%
6,CCOC(=O)c1ccc(NP(C)(=O)Oc2cc(C)cc(C)c2)cc1 (configuration not stated),inactive: -4.4%
7,CC1=NCCc2c1[nH]c1ccccc21.O=[N+]([O-])c1cc([N+](=O)[O-])c(O)c([N+](=O)[O-])c1,inactive: -1.9%
8,O=C(O)c1cccc(Nc2c([N+](=O)[O-])cc([N+](=O)[O-])cc2[N+](=O)[O-])c1,inactive: -0.7%
9,COc1ccccc1OP(C)(=O)Nc1c(C)cccc1C (configuration not stated),inactive: -32.9%
10,CN1CCCCC1COC(=O)C1(O)c2ccccc2CCc2ccccc21 (configuration not stated),inactive: -0.9%
11,CP(=O)(Nc1ccc(SC(F)(F)F)cc1)Oc1ccccc1 (configuration not stated),inactive: -2.7%
12,CCCOc1ccc(NP(C)(=O)Oc2ccc(Cl)cc2)cc1 (configuration not stated),inactive: -4.7%
13,O=[N+]([O-])c1cc([N+](=O)[O-])c(Nc2nnnn2CCO)c([N+](=O)[O-])c1,inactive: -4.4%
14,CCOC(=O)C(CC)C1=NC(C)(C)Cc2ccccc21.O=[N+]([O-])c1cc([N+](=O)[O-])c(O)c([N+](=O)[O-])c1 (configuration not stated),inactive: -1.8%
15,Cc1nc2ccc3ccccc3c2s1.O=[N+]([O-])c1cc([N+](=O)[O-])c(O)c([N+](=O)[O-])c1,inactive: 1.2%
16,O=[N+]([O-])c1cc([N+](=O)[O-])c(-n2nnc3ccccc32)c([N+](=O)[O-])c1,inactive: 0.9%
17,CCOP(C)(=S)SCC(=O)NC(C)C(=O)O (configuration not stated),inactive: 0.8%
18,CCOC(=O)c1ccc(NP(C)(=O)Oc2ccc(OC)cc2)cc1 (configuration not stated),inactive: -2%
19,CP(=O)(Nc1ccccn1)Oc1ccc(Cl)cc1 (configuration not stated),inactive: -0.6%
20,Cc1cccc(C)c1OP(C)(=O)Nc1ccc(SC(F)(F)F)cc1 (configuration not stated),inactive: -0.9%
21,CP(=O)(Nc1ccc(SC(F)(F)F)cc1)Oc1ccc(Cl)cc1 (configuration not stated),inactive: -3.3%

row,SMILES,inhibition
1,CP(=O)(Oc1ccccc1)OC(c1ccccc1)C(F)(F)F (configuration not stated),inactive: -3%
2,CCc1ccc(OP(C)(=O)N2CCN(c3ccc([N+](=O)[O-])cc3)CC2)cc1 (configuration not stated),inactive: -6.1%
3,CP(=O)(NC(=O)Nc1ccccc1)Oc1ccccc1 (configuration not stated),inactive: -2.3%
4,Cc1cc(C)cc(OP(C)(=O)Nc2ccc(SC(F)(F)F)cc2)c1 (configuration not stated),inactive: -4.1%
5,CP(=S)(Nn1cnnc1)Oc1ccccc1 (configuration not stated),inactive: -0.6%
6,COc1ccccc1OP(C)(=O)Nc1ccccc1 (configuration not stated),inactive: 0.2%
7,CP(=O)(Nc1ccccc1Br)Oc1ccccc1 (configuration not stated),inactive: 0.3%
8,CCOC(=O)c1ccc(NP(C)(=O)Oc2ccccc2)cc1 (configuration not stated),inactive: 0.3%
9,COc1ccccc1OP(C)(=O)Nc1ccc(C)cc1 (configuration not stated),inactive: 1.6%
10,Cc1ccc(NP(C)(=O)Oc2ccccc2)c(C)c1 (configuration not stated),inactive: -1.4%
11,COc1ccccc1OP(C)(=O)Nc1cc(Cl)ccc1C (configuration not stated),inactive: -1.6%
12,COc1ccc(OP(C)(=O)Nc2cccc(F)c2)cc1 (configuration not stated),inactive: 2.1%
13,Cc1cc(C)cc(OP(C)(N)=O)c1 (configuration not stated),inactive: 0.7%
14,CC(C)(C)c1ccc(OP(C)(=O)Nc2ccc(SC(F)(F)F)cc2)cc1 (configuration not stated),inactive: -6.7%
15,Cc1cccc(C)c1OP(C)(N)=O (configuration not stated),inactive: -0.8%
16,O=[N+]([O-])c1ccc2c(c1)C=Nc1ccccc1O2,inactive: -2.6%
17,CCN(CC)CCCOC(=O)C(O)(c1ccccc1)c1ccccc1,inactive: 2.6%
18,O=[N+]([O-])c1cc([N+](=O)[O-])c(Nc2ccccn2)c([N+](=O)[O-])c1,inactive: 0.1%
19,Cc1c(NP(C)(=O)Oc2ccc(C(C)C)cc2)c(=O)n(-c2ccccc2)n1C (configuration not stated),inactive: -5%
20,CP(=O)(Nc1ccccn1)Oc1ccccc1 (configuration not stated),inactive: -0.1%
21,COc1ccccc1OP(C)(=O)Nc1ccc(C)cc1C (configuration not stated),inactive: -0.7%

row,SMILES,inhibition
1,COc1ccccc1OP(C)(=O)Nc1ccc(Br)cc1 (configuration not stated),inactive: -1.4%
2,CN(C)CCOC(=O)C(O)(c1ccccc1)C1CCCC1 (configuration not stated),inactive: 0%
3,COc1ccc(OP(C)(=O)Nc2ccccn2)cc1 (configuration not stated),inactive: 1.3%
4,Cc1nc2ccc3ccccc3c2o1.O=[N+]([O-])c1cc([N+](=O)[O-])c(O)c([N+](=O)[O-])c1,inactive: 10.7%
5,CP(=O)(OCCOc1ccccc1)OCCOc1ccccc1,inactive: -1%
6,CP(=O)(Nc1ccc(Cl)cc1Cl)Oc1ccccc1 (configuration not stated),inactive: -0.3%
7,Cc1cc(C)cc(OP(C)(=O)Nc2cccc(C(F)(F)F)c2)c1 (configuration not stated),inactive: -7.6%
8,COc1ccc(OP(C)(=O)Nc2ccccc2Br)cc1 (configuration not stated),inactive: -2.7%
9,COc1ccccc1OP(C)(=O)Nc1ccc(C)c(C)c1 (configuration not stated),inactive: 0.1%
10,CP(=O)(OC12CC3CC(CC(C3)C1)C2)OC12CC3CC(CC(C3)C1)C2,inactive: 9.8%
11,CCOC(=O)c1ccc(NP(C)(=O)Oc2ccc(Cl)cc2)cc1 (configuration not stated),inactive: -1.7%
12,CC(C)(C)c1ccc(OP(C)(=O)O)cc1,inactive: 0.6%
13,COc1ccccc1OP(C)(=O)Nc1ccccc1Br (configuration not stated),inactive: -1.4%
14,CN(C)C(=O)c1c([N+](=O)[O-])cc([N+](=O)[O-])cc1[N+](=O)[O-],inactive: 1%
15,CCN(CC)CC(O)COC(=O)C(O)(c1ccccc1)C1CCCCC1 (configuration not stated),inactive: 0.8%
16,COc1ccc(OP(C)(=O)Nc2ccc(Br)cc2)cc1 (configuration not stated),inactive: -2.5%
17,CP(=O)(Oc1ccccc1)N1CCOC1=O (configuration not stated),inactive: 0.2%
18,CCc1ccc(OP(C)(=O)Nc2cccnc2)cc1 (configuration not stated),inactive: -0.5%
19,COc1ccccc1OP(C)(=O)Nc1c(C)n(C)n(-c2ccccc2)c1=O (configuration not stated),inactive: -0.7%
20,O=C(OCCCN1CCCC1)C(O)(c1ccccc1)C1CCCCC1 (configuration not stated),inactive: -1.1%
21,CP(=O)(Nc1ccc2c(c1)OCCO2)Oc1ccccc1 (configuration not stated),inactive: -0.5%

row,SMILES,inhibition
1,Cc1ccccc1NP(C)(=O)Nc1ccccc1C,inactive: -0.9%
2,CP(=O)(Nc1ccc(SC(F)(F)F)cc1)Oc1ccc(F)cc1 (configuration not stated),inactive: -0.5%
3,CCOP(C)(=S)SCC(=O)NC(C)(CC)C(=O)O (configuration not stated),inactive: 1.2%
4,Cc1cc(-c2cccc3ccccc23)c(C)cn1.O=[N+]([O-])c1cc([N+](=O)[O-])c(O)c([N+](=O)[O-])c1,inactive: -1.3%
5,O=[N+]([O-])c1cc([N+](=O)[O-])c(NCC2CCS(=O)(=O)C2)c([N+](=O)[O-])c1 (configuration not stated),inactive: 5.6%
6,O=[N+]([O-])c1ccc(OP2(=O)COCCO2)cc1 (configuration not stated),inactive: -2.2%
7,COc1ccc(OP(C)(=O)Nc2cccc(Br)c2)cc1 (configuration not stated),inactive: -1.4%
8,COc1ccc(NP(C)(=O)Oc2ccccc2OC)cc1 (configuration not stated),inactive: -1.3%
9,CN(C)CCOC(=O)C(O)(c1ccccc1)C1CCCCC1 (configuration not stated),inactive: -2.1%
10,CCN(CC)CCCOC(=O)C(O)(c1ccccc1)C1CCCCC1 (configuration not stated),inactive: -0.9%
11,CCCCCOc1ccc(NP(C)(=O)Oc2ccc(Cl)cc2Cl)cc1 (configuration not stated),inactive: -5.8%
12,CP(=O)(Nc1ccccc1)Oc1ccc(F)cc1 (configuration not stated),inactive: -3.1%
13,COc1ccc(OP(C)(=O)Nc2ccc(SC(F)(F)F)cc2)cc1 (configuration not stated),inactive: -9.7%
14,CCOC(=O)c1ccc(NP(C)(=O)Oc2ccc(F)cc2)cc1 (configuration not stated),inactive: -4.3%
15,O=C(OCCN1CCN(CCOCc2ccccc2)CC1)C(O)(c1ccccc1)c1ccccc1,inactive: -2.4%
16,O=C(OC1CN2CCC1CC2)c1ccc([N+](=O)[O-])cc1 (configuration not stated),inactive: 1.7%
17,COc1ccc2c(c1O)-c1c(O)c(OC)cc3c1[C@H](C2)[N+](C)(C)CC3.O=[N+]([O-])c1cc([N+](=O)[O-])c([O-])c([N+](=O)[O-])c1[O-],inactive: 5.7%
18,CC(C)c1ccc(OP(C)(=O)Nc2ccc(SC(F)(F)F)cc2)cc1 (configuration not stated),inactive: -6.3%
19,CP(=O)(Nc1ccccc1F)Oc1ccccc1 (configuration not stated),inactive: -4.3%
